By UniProt entry, the sequences of proteins in these tests, tags left out. Where a name states a change or a piece, a line headed by the entry shows the natural chain unless it says otherwise.
UniProt Q8WXH5: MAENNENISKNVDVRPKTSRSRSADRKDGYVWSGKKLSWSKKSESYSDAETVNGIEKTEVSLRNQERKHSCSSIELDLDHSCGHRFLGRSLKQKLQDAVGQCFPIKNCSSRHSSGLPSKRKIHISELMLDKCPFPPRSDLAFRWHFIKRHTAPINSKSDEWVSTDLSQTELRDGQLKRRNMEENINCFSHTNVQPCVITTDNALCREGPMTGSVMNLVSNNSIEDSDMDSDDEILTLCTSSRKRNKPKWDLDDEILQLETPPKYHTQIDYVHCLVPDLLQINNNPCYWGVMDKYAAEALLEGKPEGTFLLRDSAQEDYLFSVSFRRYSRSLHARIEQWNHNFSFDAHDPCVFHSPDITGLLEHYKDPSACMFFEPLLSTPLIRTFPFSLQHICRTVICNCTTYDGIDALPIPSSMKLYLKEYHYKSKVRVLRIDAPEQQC

In PMC2225448:

Target: EGFR pY1069 peptide pY1069 (Homo sapiens) (UniProt P00533)
Assay: ITC

Kd: > 10 µM
Substance: SOCS4/ElonginB/C (from UniProt Q8WXH5)
